This passage reports outcome results from PubChem BioAssay AID488922 (Johns Hopkins Ion Channel Center, 2010).

Chains of the proteins cited; added tags and fusions are not shown.
UniProt Q9NPC2, whole entry: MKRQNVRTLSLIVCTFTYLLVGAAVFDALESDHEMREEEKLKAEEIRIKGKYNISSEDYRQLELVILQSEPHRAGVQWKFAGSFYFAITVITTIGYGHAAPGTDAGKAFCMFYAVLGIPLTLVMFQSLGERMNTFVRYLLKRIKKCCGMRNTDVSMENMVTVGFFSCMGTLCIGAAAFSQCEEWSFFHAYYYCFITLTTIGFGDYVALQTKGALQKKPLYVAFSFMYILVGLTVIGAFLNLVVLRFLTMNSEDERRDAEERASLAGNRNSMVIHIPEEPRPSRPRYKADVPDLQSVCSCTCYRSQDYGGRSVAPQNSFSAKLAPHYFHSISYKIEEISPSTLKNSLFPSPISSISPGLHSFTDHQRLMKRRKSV

The entries are a selection whose mix differs from that of the whole data set. Activity calls are given as the source filed them.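 How the source made its calls: active means ratio B-score over 3 SD below the library mean, with starting fluorescence within 5 SD of its mean; inactive means the rest, inconclusive results apart.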

This assay addresses Potassium channel subfamily K member 9 (Homo sapiens) (UniProt Q9NPC2). Description: KCNK9 potassium channel inhibitors, primary screen, HEK293 cells, thallium flux (AID 488922). Conditions: HEK293 KCNK9, FluxOR thallium flux fluorescence; at 10 µM.
Regarding `Nc1ccc([As](=O)(O)c2ccc([N+](=O)[O-])cc2)cc1`, the outcome was inactive.
Then `C(Cc1nn[nH]n1)Cc1nn[nH]n1`, with “inactive”; and `O=[N+]([O-])c1cc([N+](=O)[O-])c(NCC2CCS(=O)(=O)C2)c([N+](=O)[O-])c1` (configuration not stated), with “inactive”.
Then `Cc1cc(-c2cccc3ccccc23)c(C)cn1.O=[N+]([O-])c1cc([N+](=O)[O-])c(O)c([N+](=O)[O-])c1`, with “inactive”; and `O=[As](O)(c1ccccc1)c1ccc(O)cc1`, with “inactive”; and `O=[N+]([O-])c1ncn(CCn2cnc([N+](=O)[O-])n2)n1`, with “inactive”.
For the molecule `O=[N+]([O-])c1ccc(OP2(=O)COCCO2)cc1` (configuration not stated), the result was inactive.
With `CC(=O)NC(SC(=S)N(C)C)C(Cl)(Cl)Cl` (configuration not stated), the molecule was called inactive.
As to `O=[N+]([O-])c1ccc(O)c(/C=N/Nc2ccc([N+](=O)[O-])cc2[N+](=O)[O-])c1`, the molecule was classed as inactive.
The same measure for `COc1ccc(NP(C)(=O)Oc2ccccc2OC)cc1` (configuration not stated): “inactive”; for `C[C@H]1OP(=O)(Oc2ccccc2)[C@H](O)[C@H](O)[C@H]1N=[N+]=[N-]` (some centres not stated): “inactive”.
Take `O=P(Nc1nc2ccccc2s1)(c1ccccc1)c1ccccc1`: the molecule was classed as inactive.
As for `CN(C)CCOC(=O)C(O)(c1ccccc1)C1CCCCC1` (configuration not stated), the call was inactive.
The same measure for `CN(C)C1(CNC(=O)c2ccc(Cl)c(S(N)(=O)=O)c2)CCCCC1`: “inactive”; for `O=P(Nc1ccccn1)(c1ccc(Br)cc1)c1ccc(Br)cc1`: “inactive”; for `COc1ccc(OP(C)(=O)Nc2cccc(Br)c2)cc1` (configuration not stated): “inactive”.
On to `CP(=O)(Nc1ccc2c(c1)OCCO2)Oc1ccccc1` (configuration not stated), for which the molecule was classed as inactive.
Regarding `c1nnnn1CCn1cnnn1`, the call was inactive.
The same measure for `CCOP(C)(=S)SCC(=O)NC(C)(CC)C(=O)O` (configuration not stated): “inactive”; for `O=P(Nc1nccs1)(c1ccccc1)c1ccccc1`: “inactive”.
On to `CC(C)C(=O)NC(Sc1ccccc1)C(Cl)(Cl)Cl` (configuration not stated), for which the molecule was called inactive.
Consider `CP(=O)(Nc1ccc(SC(F)(F)F)cc1)Oc1ccc(F)cc1` (configuration not stated), for which the molecule was called inactive.
Then `CC1CCN(C(=O)Oc2c(Cl)cc(Cl)c3cccnc23)CC1`, with “inactive”.
Then `CN(C)C(=O)OCCc1n(C)cc[n+]1C`, with “inactive”; and `CC(C)=N/N=C(\N)N[N+](=O)[O-]`, with “inactive”.
Then `CN(C)C(=O)c1c([N+](=O)[O-])cc([N+](=O)[O-])cc1[N+](=O)[O-]`, with “inactive”; and `CP(=O)(Nc1ccc(Cl)cc1)Oc1ccc(F)cc1` (configuration not stated), with “inactive”; and `CCN(/C(=N/P(=O)(N1CCOCC1)N1CCOCC1)N1CCOCC1)c1ccc(OC)cc1`, with “inactive”.
Regarding `C[N+]1=C2C=CC=CC=C2SC12C([N+](=O)[O-])=CC([N+](=O)[O-])=C[C-]2[N+](=O)[O-]` (configuration not stated), the outcome was inactive.
Then `Nc1ccc([As](=O)(O)c2ccc(N)cc2)cc1`, with “inactive”; and `CC(C)(C)c1ccc(OP(C)(=O)O)cc1`, with “inactive”.
The same measure for `COc1ccccc1OP(C)(=O)Nc1ccccc1Br` (configuration not stated): “inactive”.
The same measure for `O=[N+]([O-])c1cc([N+](=O)[O-])c(CCNc2ccccc2)c([N+](=O)[O-])c1`: “inactive”.
Regarding `CCc1nc2c(n1)c1c(non1O)c1c2no[n+]1[O-]`, the molecule was called inactive.
Then `CCc1ccc(OP(C)(=O)Nc2cccnc2)cc1` (configuration not stated), with “inactive”.
As to `Cc1ccc(NP(=O)(Oc2ccccc2)Oc2ccccc2)nc1`, the molecule was called inactive.
In the case of `CP(=O)(Oc1ccccc1)N1CCOC1=O` (configuration not stated), the outcome was inactive.
In the case of `O=C(OCCCN1CCCC1)C(O)(c1ccccc1)C1CCCCC1` (configuration not stated), the molecule was called inactive.
In the case of `COc1ccccc1OP(C)(=O)Nc1c(C)n(C)n(-c2ccccc2)c1=O` (configuration not stated), the molecule was called inactive.
Then `CC(=O)N1C2C3N(C(C)=O)C1C1N(C(C)=O)C(C(N1C(C)=O)N3C(C)=O)N2C(C)=O`, with “inactive”; and `O=[N+]([O-])c1cccc2n[nH]nc12`, with “inactive”.
Then `COc1ccc(C2=NCC(CBr)S2)cc1` (configuration not stated), with “inactive”; and `COc1ccc(OP(C)(=O)Nc2ccc(Br)cc2)cc1` (configuration not stated), with “inactive”.
For `CCN(CC)CC(O)COC(=O)C(O)(c1ccccc1)C1CCCCC1` (configuration not stated), the call was inactive.
For the molecule `O=C(O)CNc1ccc([As](=O)(O)O)cc1`, the call was inactive.
Consider `O=[N+]([O-])c1cccc(NC2=NCC(CBr)S2)c1` (configuration not stated), for which the molecule was classed as inactive.
Then `O=[N+]([O-])c1ncn(CCn2ncnc2[N+](=O)[O-])n1`, with “inactive”; and `CC(C)(C)C(=O)NC(Sc1ccncn1)C(Cl)(Cl)Cl` (configuration not stated), with “inactive”.
Regarding `CP(=O)(OC12CC3CC(CC(C3)C1)C2)OC12CC3CC(CC(C3)C1)C2`, the result was inactive.
For `O=C(Nc1cc([As](=O)(O)O)ccc1O)c1ccccc1`, the result was inactive.
Consider `CCOC(=O)c1ccc(NP(C)(=O)Oc2ccc(Cl)cc2)cc1` (configuration not stated), for which the call was inactive.
The same measure for `Nc1ccc2c(ccc3cccnc32)n1.O=[N+]([O-])c1cc([N+](=O)[O-])c(O)c([N+](=O)[O-])c1`: “inactive”; for `CP(=O)(OCCOc1ccccc1)OCCOc1ccccc1`: “inactive”; for `CP(=O)(Nc1ccc(Cl)cc1Cl)Oc1ccccc1` (configuration not stated): “inactive”.
Then `Nc1cccc2ccc([As](=O)(O)O)cc12`, with “inactive”; and `CCN(N=Nc1nonc1N)c1nonc1N`, with “inactive”; and `O=[N+]([O-])c1cc([N+](=O)[O-])c(CCN2CCOCC2)c([N+](=O)[O-])c1`, with “inactive”.
The same measure for `Cc1nc2ccc3ccccc3c2o1.O=[N+]([O-])c1cc([N+](=O)[O-])c(O)c([N+](=O)[O-])c1`: “inactive”; for `COc1ccc(OP(C)(=O)Nc2ccccc2Br)cc1` (configuration not stated): “inactive”.
Take `CN(C(=O)Cc1ccc(Cl)c(Cl)c1)[C@H]1CCCC[C@@H]1N1CCCC1`: the molecule was classed as inactive.
Consider `Cc1ccc(NP(=O)(Oc2ccccc2F)Oc2ccccc2F)nc1`, for which the molecule was classed as inactive.
The same measure for `COc1ccccc1OP(C)(=O)Nc1ccc(C)c(C)c1` (configuration not stated): “inactive”; for `CCOP(=O)(Nc1ccccc1)OCC`: “inactive”.
The same measure for `Cc1cc(SC(NC(=O)c2ccc(F)cc2)C(Cl)(Cl)Cl)ncn1` (configuration not stated): “inactive”; for `Cc1cc(C)cc(OP(C)(=O)Nc2cccc(C(F)(F)F)c2)c1` (configuration not stated): “inactive”; for `O=P(Nc1nc2ccc(Cl)cc2s1)(c1ccccc1)c1ccccc1`: “inactive”.
Then `O=C(O)c1ccccc1[As](=O)(O)O`, with “inactive”; and `CC(=O)Nc1ccc([As](=O)(O)O)cc1`, with “inactive”.
Consider `CCc1ccc(OP(C)(=O)O)cc1`, for which the molecule was called inactive.
With `COc1ccccc1OP(C)(=O)Nc1ccc(C)cc1C` (configuration not stated), the outcome was inactive.
As for `CP(=O)(Nc1ccccn1)Oc1ccccc1` (configuration not stated), the result was inactive.
Then `Cc1c2non([O-])c-2c(C)[n+](=O)[n+]1[O-]`, with “inactive”; and `O=C(NC(Sc1ccncn1)C(Cl)(Cl)Cl)c1ccccc1` (configuration not stated), with “inactive”; and `Oc1ccccc1CNc1ccccn1`, with “inactive”.
With `O=[N+]([O-])c1cc([N+](=O)[O-])c(Nc2ccccn2)c([N+](=O)[O-])c1`, the result was inactive.
Then `CC(C)CC(=O)NC(Sc1ccc(Cl)cc1)C(Cl)(Cl)Cl` (configuration not stated), with “inactive”; and `Nc1cc(N)c2nonc2c1[N+](=O)[O-]`, with “inactive”; and `Cc1c(NP(C)(=O)Oc2ccc(C(C)C)cc2)c(=O)n(-c2ccccc2)n1C` (configuration not stated), with “inactive”.
On to `CN(C)CCOC(=O)C(O)(c1ccccc1)C1CCCC1` (configuration not stated), for which the molecule was called inactive.
The same measure for `Clc1ccc(Cl)c(NC2=NCC(CBr)S2)c1` (configuration not stated): “inactive”; for `CN1CCCC(OC(=O)C(c2ccccc2)c2ccccc2)C1` (configuration not stated): “inactive”; for `Cc1ccc(OP(=O)(Nc2nccs2)Oc2ccc(C)cc2)cc1`: “inactive”.
In the case of `COc1ccc(OP(C)(=O)Nc2ccccn2)cc1` (configuration not stated), the molecule was classed as inactive.
As to `COc1ccccc1OP(=O)(Nc1ccc(C)cn1)Oc1ccccc1OC`, the outcome was inactive.
The same measure for `Cc1ccc(N/C(=N/P(=O)(N2CCOCC2)N2CCOCC2)N2CCOCC2)cc1`: “inactive”.
On to `COc1ccccc1OP(C)(=O)Nc1ccc(Br)cc1` (configuration not stated), for which the call was inactive.
On to `NC(=O)c1cc([N+](=O)[O-])cc([N+](=O)[O-])c1N`, for which the result was inactive.
